In this experiment the target is human p38 MAPK α (Homo sapiens (Human), UniProt Q16539). The experiment can be described thus: Evaluation of p38 MAPK inhibitory activity (Alpha Screen, ATF2 phosphorylation). Particulars: p38α/SAPK2a 1.5 nM, ATP 100 μM, biotinylated ATF2 30 nM. The experiment is classed as biochemical. The procedure: Using human p38 MAPK α, the p38 MAPK inhibitory activity of Compound (I) was studied by a method partially modified from the method described in Current Medicinal Chemistry (2004, No. 11, pp. 721-730).
A solution of each test compound solution in 100% DMSO and a p38α/SAPK2a solution (Final Concentration: 1.5 nM) (Invitrogen) were added to a 384-well plate, and then the plate was incubated at room temperature in a dark place for 1 hour. Thereafter, ATP (Final Concentration: 100 μM), which is a phosphate donor, and biotinylated ATF2 (Final Concentration: 30 nM) (upstate), which is a substrate, were added, and the resulting mixture was allowed to react at room temperature in a dark place for 1 hour (the final concentration of DMSO was 0.25%). After the reaction, an anti-phosphorylated ATF2 antibody (Final Concentration: 1 nM) (Cell Signaling), anti-IgG acceptor beads (Final Concentration: 20 μg/mL) (PerkinElmer) and streptavidin donor beads (Final Concentration: 20 μg/mL) (PerkinElmer) were added, and the resultant was incubated at room temperature in a dark place for 1 hour. Using a microplate analyzer (Fusion-α, Packard) in Alpha Screen method (Amplified Luminescent Proximity Homogeneous Assay), the light emission was detected. The IC50 value of each compound was calculated by sigmoidal dose-response regression using Prism 4.02 (GraphPad Software, Inc.). As a comparative control compound, Comparative Compound 1 was used.

By UniProt entry, the sequences of proteins in these tests, tags left out.
UniProt Q16539, whole entry: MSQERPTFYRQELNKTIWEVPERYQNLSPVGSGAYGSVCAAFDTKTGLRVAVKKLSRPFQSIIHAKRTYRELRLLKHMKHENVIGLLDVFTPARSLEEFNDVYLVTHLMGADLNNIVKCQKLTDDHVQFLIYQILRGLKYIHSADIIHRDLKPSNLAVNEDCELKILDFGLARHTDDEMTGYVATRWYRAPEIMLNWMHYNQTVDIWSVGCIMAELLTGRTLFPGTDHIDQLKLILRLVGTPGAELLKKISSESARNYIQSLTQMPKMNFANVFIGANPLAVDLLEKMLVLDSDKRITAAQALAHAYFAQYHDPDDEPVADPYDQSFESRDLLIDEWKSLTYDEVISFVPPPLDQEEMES

SMILES strings stand for the structures. pIC50: −log10 of the molar value.

Among the data in patent US8653304B2, “2,3-dihydro-1H-indene-2-yl urea derivative and pharmaceutical application of same” (Toray Industries, Inc., priority 2009, dated 2014) are IC50 values, retold here.

A word on the pIC50: it is −log10 of the IC50, conventionally taken in molar units. Low values mean a large IC50, high ones a small IC50. In turn, `COc1c(NC(=O)N[C@@H]2Cc3ccccc3[C@@H]2O)cc(N2CCCC2)cc1[C@H](O)C(F)(F)F` (single isomer, unassigned) [Compound 92b] gave a pIC50 of 7.29.

The molecule `COc1c(NC(=O)N[C@@H]2Cc3ccccc3[C@@H]2O)cc(C2(C)CCOCC2)cc1[C@H](O)C(F)(F)F` (single isomer, unassigned) [Compound 108b] gave a pIC50 of 7.89.

`COc1c(CO)cc(C(C)(C)C)cc1NC(=O)N[C@@H]1Cc2c(F)cccc2[C@@H]1O` [Compound 3, 1-(5-tert-butyl-3-(hydroxymethyl)-2-methoxyphenyl)-3-((1S,2R)-4-fluoro-1-hydroxy-2,3-dihydro-1H-indene-2-yl)urea] gave a negative-log IC50 (pIC50) of 8.52.
